Protein sequences, listed by entry. Tags and fused reporters are not part of them. Lines headed by an entry give the natural chain unless they say otherwise; changes in a name come on top.
UniProt P41145: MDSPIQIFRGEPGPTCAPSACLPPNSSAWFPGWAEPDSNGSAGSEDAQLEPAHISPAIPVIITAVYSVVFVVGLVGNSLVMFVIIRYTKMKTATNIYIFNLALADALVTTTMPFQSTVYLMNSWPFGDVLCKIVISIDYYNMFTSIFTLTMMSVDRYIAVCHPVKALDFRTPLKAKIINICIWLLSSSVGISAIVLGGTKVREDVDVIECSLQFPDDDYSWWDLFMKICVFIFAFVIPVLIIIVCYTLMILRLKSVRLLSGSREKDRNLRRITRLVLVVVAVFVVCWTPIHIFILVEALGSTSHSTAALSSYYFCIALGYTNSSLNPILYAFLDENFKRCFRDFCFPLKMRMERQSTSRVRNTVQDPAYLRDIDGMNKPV
UniProt P35372, whole entry: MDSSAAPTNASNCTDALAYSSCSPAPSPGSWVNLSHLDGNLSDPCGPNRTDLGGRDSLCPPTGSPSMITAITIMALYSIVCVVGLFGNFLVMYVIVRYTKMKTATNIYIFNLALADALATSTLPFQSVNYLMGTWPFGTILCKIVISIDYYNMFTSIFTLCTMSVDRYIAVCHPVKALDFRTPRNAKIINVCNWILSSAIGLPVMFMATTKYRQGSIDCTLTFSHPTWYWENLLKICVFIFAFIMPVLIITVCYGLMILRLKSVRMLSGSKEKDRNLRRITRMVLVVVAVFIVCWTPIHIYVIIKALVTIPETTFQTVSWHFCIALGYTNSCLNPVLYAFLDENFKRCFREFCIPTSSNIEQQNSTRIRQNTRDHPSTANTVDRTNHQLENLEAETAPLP
UniProt P41143, whole entry: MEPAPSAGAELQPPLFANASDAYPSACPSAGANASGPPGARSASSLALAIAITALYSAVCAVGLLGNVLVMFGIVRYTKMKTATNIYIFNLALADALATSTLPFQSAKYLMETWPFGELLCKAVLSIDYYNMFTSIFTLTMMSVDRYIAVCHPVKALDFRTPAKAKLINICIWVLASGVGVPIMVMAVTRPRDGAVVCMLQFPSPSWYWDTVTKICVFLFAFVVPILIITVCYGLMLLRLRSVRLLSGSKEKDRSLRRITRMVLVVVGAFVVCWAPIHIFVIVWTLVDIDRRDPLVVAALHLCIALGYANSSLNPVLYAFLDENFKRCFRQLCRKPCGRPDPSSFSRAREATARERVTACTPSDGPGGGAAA

According to ChEMBL document CHEMBL4715797, “Structure-Activity Relationships of [des-Arg]Dynorphin A Analogues at the κ Opioid Receptor” (J Med Chem, 2016):

What was measured:
[1] = biological target: T1, Kappa-type opioid receptor (Homo sapiens, UniProt P41145); assay: Displacement of [3H]U69,593 from human KOR expressed in mouse HN9.10 cell membranes incubated for 2 hrs by liquid scintillation counting based radioligand competition assay
Mu-type opioid receptor = Mu-type opioid receptor (Homo sapiens, UniProt P35372); assay: Displacement of [3H]diprenorphine from human MOR expressed in mouse NG108-15 cell membranes incubated for 2 hrs by liquid scintillation counting based radioligand competition assay
[2] = biological target: Delta-type opioid receptor (Homo sapiens, UniProt P41143); assay: Displacement of [3H]deltorphin-II from human DOR expressed in CHO cell membranes incubated for 2 hrs by liquid scintillation counting based radioligand competition assay
In short: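 Crude membranes from transfected cells, 50 µg protein, in 50 mM Tris-HCl pH 7.4 with bacitracin 50 µg/mL, captopril 10 µM, PMSF 100 µM and BSA 5 mg/mL. Ten concentrations (10−4–10−13 M) were run against 500 pM [3H]deltorphin II for 2 h at rt with shaking. Nonspecific binding was taken with 10 µM naloxone. Filtered on PEI-soaked GF/B, washed in cold saline, scintillation counted.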

[3] = biological target: T1, Kappa-type opioid receptor; assay: Antagonist activity at human KOR expressed in CHO cell membranes assessed as reduction in U50,488 induced response incubated for 1 hr by liquid scintillation counting based [35S]GTP-gamma-S assay; set-up: species or system Cell membrane

| SMILES | IC50 [1] | Ki [1] | IC50 (Mu-type opioid receptor) | Ki (Mu-type opioid receptor) | IC50 [2] | Ki [2] | IC50 [3] |
| --- | --- | --- | --- | --- | --- | --- | --- |
| CC(=O)N[C@@H](Cc1ccc(O)cc1)C(=O)NCC(=O)N1CCC[C@H]1C(=O)N[C@@H](Cc1ccccc1)C(=O)N[C@@H](CC(C)C)C(=O)N[C@@H](CCCN)C(=O)N[C@H](C)C(=O)N[C@@H](CCCNC(=N)N)C(=O)N1CCC[C@H]1C(=O)N[C@@H](CCCCN)C(N)=O | 7080 nM | 4300 nM | – | – | – | – | – |
| CC[C@H](C)[C@H](NC(=O)[C@H](CCCNC(=N)N)NC(=O)[C@H](CC(C)C)NC(=O)[C@H](Cc1ccccc1)NC(=O)CNC(=O)CNC(=O)[C@H](Cc1ccc(O)cc1)NC(C)=O)C(=O)N[C@@H](CCCNC(=N)N)C(N)=O | 93.3 nM | 51 nM | 9550 nM | 4320 nM | – | – | – |
| CC[C@H](C)[C@H](NC(=O)[C@H](CCCNC(=N)N)NC(=O)[C@H](CC(C)C)NC(=O)[C@H](Cc1ccccc1)NC(=O)CNC(=O)CNC(=O)[C@@H](N)Cc1ccc(O)cc1)C(=O)N[C@@H](CCCNC(=N)N)C(N)=O | 0.55 nM | 0.3 nM | – | – | – | – | – |
| CC(=O)N[C@@H](Cc1ccc(O)cc1)C(=O)NCC(=O)N1CCC[C@H]1C(=O)N[C@@H](Cc1ccccc1)C(=O)N[C@@H](CC(C)C)C(=O)N[C@@H](CCCNC(=N)N)C(=O)N[C@H](C)C(=O)N[C@@H](CCCNC(=N)N)C(=O)N1CCC[C@H]1C(=O)N[C@@H](CCCCN)C(N)=O | 9120 nM | 5200 nM | – | – | 24500 nM | 9700 nM | – |
| CC[C@H](C)[C@H](NC(=O)[C@H](CCCNC(=N)N)NC(=O)[C@H](CC(C)C)NC(=O)[C@H](Cc1ccccc1)NC(=O)CNC(=O)CNC(=O)[C@@H](N)Cc1ccc(O)cc1)C(=O)N[C@@H](CCCNC(=N)N)C(=O)N1CCC[C@H]1C(=O)N[C@@H](CCCCN)C(=O)O | – | – | – | 6.3 nM | – | – | – |
| CC[C@H](C)[C@H](NC(=O)[C@H](CCCNC(=N)N)NC(=O)[C@H](CC(C)C)NC(=O)[C@H](Cc1ccccc1)NC(=O)[C@@H]1CCCN1C(=O)CNC(=O)[C@@H](N)Cc1ccc(O)cc1)C(=O)N[C@@H](CCCNC(=N)N)C(=O)N1CCC[C@H]1C(=O)N[C@@H](CCCCN)C(N)=O | 115 nM | 61 nM | – | – | 7760 nM | 3900 nM | > 2500 nM |
| CC[C@H](C)[C@H](NC(=O)[C@H](CCCNC(=N)N)NC(=O)[C@H](CC(C)C)NC(=O)[C@H](Cc1ccccc1)NC(=O)CNC(=O)CNC(=O)[C@H](Cc1ccc(O)cc1)NC(C)=O)C(=O)N[C@@H](CCCNC(=N)N)C(=O)N1CCC[C@H]1C(=O)N[C@@H](CCCCN)C(N)=O | 158 nM | 85 nM | 1620 nM | 820 nM | – | – | – |
| CC(=O)N[C@@H](Cc1ccc(O)cc1)C(=O)NCC(=O)NCC(=O)N[C@@H](Cc1ccccc1)C(=O)N[C@@H](CC(C)C)C(=O)N[C@@H](CCCNC(=N)N)C(=O)N[C@H](C)C(=O)N[C@@H](CCCNC(=N)N)C(=O)N1CCC[C@@H]1C(=O)N[C@@H](CCCCN)C(N)=O | 186 nM | 98 nM | – | – | 8710 nM | 720 nM | – |
| CC[C@H](C)[C@H](NC(=O)[C@H](CCCNC(=N)N)NC(=O)[C@H](CC(C)C)NC(=O)[C@H](Cc1ccccc1)NC(=O)CNC(=O)CNC(=O)[C@@H](N)Cc1ccc(O)cc1)C(=O)N[C@@H](CCCNC(=N)N)C(=O)N1CCC[C@H]1C(=O)N[C@@H](CCCCN)C(N)=O | – | – | 1.82 nM | 0.94 nM | – | – | – |
| CC(=O)N[C@@H](Cc1ccc(O)cc1)C(=O)NCC(=O)N1CCC[C@H]1C(=O)N[C@@H](Cc1ccccc1)C(=O)N[C@@H](CC(C)C)C(=O)N[C@@H](CCCNC(=N)N)C(=O)N[C@H](C)C(=O)N[C@@H](CCCNC(=N)N)C(=O)N1CCC[C@@H]1C(=O)N[C@@H](CCCCN)C(N)=O | 6920 nM | 3600 nM | – | – | – | > 10000 nM | – |
| CC[C@H](C)[C@H](NC(=O)[C@H](CCCNC(=N)N)NC(=O)[C@H](CC(C)C)NC(=O)[C@H](Cc1ccccc1)NC(=O)[C@@H]1CCCN1C(=O)CNC(=O)[C@@H](N)Cc1ccc(O)cc1)C(=O)N[C@@H](CCCNC(=N)N)C(N)=O | – | – | – | – | 8510 nM | 4600 nM | – |
